The test system of series [1] is isolated rat mitochondria. Description: t-BuOOH-induced oxidative stress model, GSH level. Conditions: self-administered t-BuOOH (75 µmol), compared to controls (untreated mitochondria).
The test system of series [2] is isolated rat mitochondria. Description: t-BuOOH-induced oxidative stress model, MDA production. Conditions: self-administered t-BuOOH (75 µmol), compared to controls (untreated mitochondria).

The results in this text go back to publication PMC9414684, “Quantitative Structure–Neurotoxicity Assessment and In Vitro Evaluation of Neuroprotective and MAO-B Inhibitory Activities of Series N′-substituted 3-(1,3,7-trimethyl-xanthin-8-ylthio)propanehydrazides” (Molecules, 2022).

For `CC(C)(C)OO`, the “decrease of GSH by the toxic agent” value in series [1] was 52%. Also, the “increase of MDA production by the toxic agent” value in series [2] was 55%.
